Assay results published in paper PMC11023938 (Nature, 2024).
“And” between values parts separate entries of the source, which are not always exact repeats. Identical values can stand only once.

What was measured:
HaCaT keratinocytes = experiment: Proliferation assay (CyQUANT), keratinocytes; format: cell-based; conditions: for Proliferation assay, Keratinocytes: each grid row one replicate
Description: (§1) Human umbilical vein endothelial cells (HUVECs; Sigma, 200P-05N) cultured in EGM-2 medium (Lonza, CC-4176) up to 3 passages, and primary mouse fibroblasts from C57BL/6 J mouse tails[26] (passages 2–3) were used. MCDB-131 medium (Thermo Fisher Scientific) with 100 mg ml^−1 penicillin/streptomycin and 2 mM glutamine was employed for proliferation assays. C2C12 mouse myoblasts (CellBank Australia) were cultured in a 1:1 ratio of DMEM to F10 medium (2 mM glutamine, 10% FBS, 100 units ml^−1 penicillin/streptomycin). HaCaT keratinocytes (a gift from R. Boyd) were cultured in DMEM without Ca^2+ and Mg^2+ (2 nM glutamine, 10% Chelex-treated FBS, 0.03 nM calcium chloride, 100 units ml^−1 penicillin/streptomycin) for at least 3 passages. Cells obtained from vendors were authenticated and certified negative for Mycoplasma contamination. For proliferation assays, FBS was reduced to 2% or kept at 10% for 24 h. […] Incubation for 48 h (fibroblasts, C2C12) or 72 h (HUVECs, HaCaTs) at 37 °C with 5% CO2 followed. Proliferation was determined using the CyQUANT Cell Proliferation Assay (Invitrogen), presented as fold change over basal proliferation (medium only). PerkinElmer EnVision multi-mode plate reader with EnSpire Manager software was used.

[1] = test system: Nav1.8^cre/Rosa26^DTA mice; experiment: Volumetric muscle loss model, nociceptor-ablated mice; format: in vivo, mouse; conditions: 1 μg CGRP or equimolar eCGRP via fibrin hydrogel, D12 post-injury; compared with saline control
[2] = test system: primary mouse fibroblasts; experiment: Proliferation assay (CyQUANT), fibroblasts; format: cell-based; conditions: for Proliferation assay, Fibroblasts: each grid row one replicate
Description: as §1

[3] = test system: Thbs1 expression in macrophages; experiment: Gene expression (RNA-seq, qPCR of Thbs1) in macrophages; format: cell-based, mouse; conditions: CGRP 1 nM, 4 h
Text: After collection, RNA extraction used the RNeasy Plus Micro Kit (Qiagen). For PCR with reverse transcription (RT–PCR) and quantitative PCR (qPCR), reverse transcription used ReverTra Ace (Toyobo). RT–PCR primers were: Human_Calcrl 5′-[…]-3′ and 5′-[…]-3′; Human_Ramp1 5′-[…]-3′ and 5′-[…]-3′; Mouse_Calcrl 5′-[…]-3′ and 5′-[…]-3′; Mouse_Ramp1 5′-[…]-3′ and 5′-[…]-3′. Human or mouse GAPDH primers were from Integrated DNA Technologies (51-01-07-12 and 51-01-07-13, respectively). PCR products were analysed by gel electrophoresis. qPCR was performed using LightCycle96 with software LightCycle96 (Roche Diagnostics) and TaqMan Assay primers from Thermo Fisher Scientific (Thbs1, Mm00449032_g1; Gapdh, Mm99999915_g1). For RNA-seq, RNA quantity and quality assessment, library preparation and sequencing were performed at the Medical Genomics Facility, Monash Health Translation Precinct (MHTP). RNA quantity was assessed using Qubit. RNA samples (20 ng) with RNA integrity number (RIN) value ≥ 7 were used for library preparation. […] Standard Illumina R1 primer was used (main cDNA read), followed by standard i7 primer for index or unique molecular identifier. R2 primer was present but not used as it will read into poly-A tail. […]
Fastq files were processed using the nfCore/RNAseq (v3.2) pipeline using the umi function. Reads were aligned to the Mus musculus GRCm38 reference using STAR aligner. […]

C2C12 mouse myoblasts = experiment: Proliferation assay (CyQUANT), myoblasts; format: cell-based; conditions: for Proliferation assay, Myoblasts: each grid row one replicate
Description: as §1

[4] = test system: bone marrow-isolated neutrophils; experiment: Neutrophil cell death; format: cell-based, mouse; conditions: CGRP 1-20 nM, in the presence of IL-1β and TNF, 12 h
[5] = CGRP 1 or 20 nM, 2% or 10% FBS, 48 h

calcitonin gene-related peptide [CGRP]
Proliferation assay, Keratinocytes (HaCaT keratinocytes; 1nM CGRP, medium 2% FBS): 1.60 and 1.96 and 1.38 and 1.05 | Proliferation assay, Keratinocytes (HaCaT keratinocytes; 1nM CGRP, medium 10% FBS): 1.05 and 0.70 and 0.74 | Proliferation assay, Keratinocytes (HaCaT keratinocytes; 20nM CGRP, medium 2% FBS): 0.98 and 1.00 and 1.16 and 1.14 | Proliferation assay, Keratinocytes (HaCaT keratinocytes; 20nM CGRP, medium 10% FBS): 1.17 and 0.81 and 0.84 and 0.94 | proliferation of keratinocytes (HaCaT keratinocytes; CGRP 1 or 20 nM, 2% or 10% FBS, 72 h): no significant effect | extent of muscle regeneration [1]: enhanced the extent | Proliferation assay, Fibroblasts ([2]; 1nM CGRP, medium 2% FBS): 1.10 and 0.72 | Proliferation assay, Fibroblasts ([2]; 1nM CGRP, medium 10% FBS): 1.03 and 1.06 and 0.94 and 0.82 and 0.97 and 1.10 | Proliferation assay, Fibroblasts ([2]; 20nM CGRP, medium 2% FBS): 0.94 and 0.76 and 1.06 | Proliferation assay, Fibroblasts ([2]; 20nM CGRP, medium 10% FBS): 0.94 and 1.03 and 0.84 and 0.85 and 1.02 and 1.11 | proliferation of fibroblasts [2, 5]: no significant effect | Thbs1 expression in macrophages ([3]; RNA-seq): most upregulated gene | Thbs1 expression in Ramp1−/− macrophages ([3]; qPCR): did not upregulate | Proliferation assay, Myoblasts (C2C12 mouse myoblasts; 1nM CGRP, medium 2% FBS): 0.98 and 0.95 and 1.48 and 1.23 | Proliferation assay, Myoblasts (C2C12 mouse myoblasts; 1nM CGRP, medium 10% FBS): 1.10 and 0.97 and 1.06 and 1.03 | Proliferation assay, Myoblasts (C2C12 mouse myoblasts; 20nM CGRP, medium 2% FBS): 1.03 and 0.85 and 1.58 and 1.08 | Proliferation assay, Myoblasts (C2C12 mouse myoblasts; 20nM CGRP, medium 10% FBS): 0.90 and 0.95 and 1.02 and 0.92 | proliferation of myoblasts (C2C12 mouse myoblasts; [5]): no significant effect | neutrophil death [4]: increased
